Among the data in ChEMBL document CHEMBL6103628, “Structural Optimization of Covalent Inhibitors for Deubiquitinase ChlaDUB1 of Chlamydia trachomatis as Antibiotic Agents” (J Med Chem, 2025) are Ratio and Kinact values, retold here.

Assay [1] deals with T1, Deubiquitinase and deneddylase Dub1 (Chlamydia trachomatis serovar L2 (strain ATCC VR-902B / DSM 19102 /434/Bu)) (UniProt B0B9A0).
T1 sequence (whole entry): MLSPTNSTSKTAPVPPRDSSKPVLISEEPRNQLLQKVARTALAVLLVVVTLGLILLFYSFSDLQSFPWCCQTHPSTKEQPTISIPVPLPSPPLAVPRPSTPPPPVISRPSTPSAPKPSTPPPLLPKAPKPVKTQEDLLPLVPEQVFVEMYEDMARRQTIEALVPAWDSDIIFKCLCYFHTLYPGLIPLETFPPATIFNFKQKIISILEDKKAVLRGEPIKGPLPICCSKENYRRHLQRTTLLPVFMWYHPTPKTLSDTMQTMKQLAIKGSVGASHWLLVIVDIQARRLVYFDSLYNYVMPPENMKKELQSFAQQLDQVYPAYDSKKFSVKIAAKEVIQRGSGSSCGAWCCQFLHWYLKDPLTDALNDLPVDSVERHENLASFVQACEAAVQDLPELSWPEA
Nature of the assay: Binding affinity to recombinant Chlamydia trachomatis DUB1 (130 to 401 residues) assessed as Kinact/Ki ratio using Ub-Rh110Gly as fluorogenic substrate incubated for 360 mins by Michaelis-Menten analysis.

Assay [2] deals with T1, Deubiquitinase and deneddylase Dub1 (Chlamydia trachomatis serovar L2 (strain ATCC VR-902B / DSM 19102 /434/Bu)). As to the kind of experiment: Binding affinity to recombinant Chlamydia trachomatis DUB1 (130 to 401 residues) assessed as inactivation rate constant (Kinact) using Ub-Rh110Gly as fluorogenic substrate incubated for 360 mins by Michaelis-Menten analysis.

Consider `N#Cc1nc(C(=O)NCc2c[nH]c3ccccc23)co1`, for which, in assay [1], the Ratio turned out to be 396 M⁻¹ s⁻¹. Besides, the Kinact in assay [2] worked out at 2.79 min⁻¹.
